## scFv variants of Ab-95 (light chain) against a SARS-CoV-2 spike peptide

Target peptide (SARS-CoV-2 spike, HR2 region): PDVDLGDISGINAS

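Phage display of a naive human antibody library on the peptide gave the parent. Library AAYL52 holds single substitutions and randomly drawn double and triple substitutions in the CDRs. Affinity was read by AlphaSeq, a pooled yeast mating assay with surface-displayed partners. The frequency of each diploid, read from paired DNA barcodes, reflects how well the two displayed proteins bind. Each replicate has its own calibration line, from reference interactions of the BCL2 family. Mating was done three times.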

The variants keep the heavy chain, the linker and the frameworks of Ab-95 (scFv order VH, a 15-residue (Gly4Ser)3 linker, VL).
VH: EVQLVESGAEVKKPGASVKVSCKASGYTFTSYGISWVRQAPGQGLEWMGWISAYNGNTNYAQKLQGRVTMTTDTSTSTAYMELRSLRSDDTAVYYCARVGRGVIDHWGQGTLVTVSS
VL: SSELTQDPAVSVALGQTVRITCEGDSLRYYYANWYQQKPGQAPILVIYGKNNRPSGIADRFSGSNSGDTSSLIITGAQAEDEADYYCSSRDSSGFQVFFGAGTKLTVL

Changes read parent residue, position, new residue, counted from the first residue of the VL shown.
Every variant below is changed at N52 of the VL (sequential numbering).
The Kd shown is the geometric mean over detected replicates; a lower Kd is a better binder.
"nd" marks a missing value. The strain was present, yet no cells mated with the target were sequenced in any replicate, which points to weak or no binding.
Empty control strains, which show no peptide, gave a signal in 28% of pairings with library AAYL52; the median was 8.2 µM and 95% of these signals were weaker than 800 nM. No background was subtracted.
In this assay the parent's reference entry averaged 200 nM; its copy inside this library read 180 nM.

Variant K50F+N52R+G94Y gave 18 µM (1 of 3 replicates). For S26C+N52R+F98V, the assay gave 1.6 µM (1 of 3 replicates). Variant G49C+N52P+S88A gave 22 µM (1 of 3 replicates). For Y31K+N52G+S89A, the assay gave 100 nM (3 of 3 replicates). Variant G49Q+N52D+S55C gave 4.4 µM (3 of 3 replicates). Variant Y29M+N51P+N52T gave 35 µM (3 of 3 replicates). Variant Y29W+N52L+S55R showed 3.6 µM (3 of 3 replicates). Variant G24M+D25E+N52I showed 36 µM (2 of 3 replicates). Variant N52Q+F98R gave 68 nM (3 of 3 replicates).

Variant N52D+R90Q+Q96R gave 89 nM (3 of 3 replicates). Variant S26N+N52H+S88E gave 910 nM (3 of 3 replicates). Variant L27V+N52Q+P54K showed 7.2 µM (2 of 3 replicates). Variant Y29F+N52E+S88Q gave nd (0 of 3 replicates). Variant Y30N+N52H+R90C gave 120 nM (3 of 3 replicates). Variant Y30P+N33M+N52Q gave 85 nM (3 of 3 replicates). For N52L+S89F+S92W, the assay gave 1.1 µM (3 of 3 replicates). For Y31D+N52T+Q96G, the assay gave 22 nM (3 of 3 replicates). For R28F+N52A+F95K, the assay gave 1.2 µM (3 of 3 replicates).

For N52M+S88Y+R90I, the assay gave 29 µM (3 of 3 replicates). With Y31P+N52A the result was 9.7 nM (3 of 3 replicates). For E23P+N52S+S89M, the assay gave 13 µM (3 of 3 replicates). Variant N52L+S89K+V97I gave nd (0 of 3 replicates). For N52L+S92D+S93Q, the assay gave 590 nM (3 of 3 replicates). With N52W+R53S+P54S the result was 1.5 µM (2 of 3 replicates). For N52W+S92V+F95N, the assay gave 1.2 µM (3 of 3 replicates). Variant S26C+N52I+S55I showed 370 nM (3 of 3 replicates). With N33P+N52K+P54M the result was nd (0 of 3 replicates).

Variant G24F+N33Y+N52Y gave 2.2 µM (3 of 3 replicates). For N52L+D91P+F98D, the assay gave 110 µM (2 of 3 replicates). For E23F+N52M+R53E, the assay gave 17 µM (2 of 3 replicates). With S26H+N52M+S93Q the result was 410 nM (3 of 3 replicates). Variant G49T+N52W+S88N gave 10 µM (1 of 3 replicates). Variant A32N+N52G+F95W gave 11 µM (2 of 3 replicates). Variant N52C+S92T showed 2.4 µM (3 of 3 replicates). Variant N51L+N52Y+Q96L gave 8.0 µM (3 of 3 replicates). With G49N+N51V+N52Y the result was 340 µM (1 of 3 replicates).

Variant S26G+N33Q+N52D gave 6.3 µM (1 of 3 replicates). Variant G49H+N52T+V97Y showed 290 nM (2 of 3 replicates). Variant N52G+S89A+G94A gave 550 nM (3 of 3 replicates). Variant S26I+L27W+N52V showed nd (0 of 3 replicates). For E23F+N33A+N52P, the assay gave 6.3 µM (3 of 3 replicates).

The 3 strongest on average among those seen in every replicate, once more:

changes,Kd,detected
Y31P+N52A,9.7 nM,3/3
Y31D+N52T+Q96G,22 nM,3/3
N52Q+F98R,68 nM,3/3

Data: MIT Lincoln Laboratory AlphaSeq set, Engelhart et al. 2022, doi:10.1038/s41597-022-01779-4, as distributed in FLAb.